Measured values: publication PMC9508125, “The evolutionary advantage of an aromatic clamp in plant family 3 glycoside exo-hydrolases” (Nature Communications, 2022)

Tested on: Cellobiose
Assay: purified protein, by the assay type
Settings: apparent, substance is the substrate, pH 5.25, 30.0 °C

“HvExoI W434F mutant (Hordeum vulgare subsp. vulgare; W459F)” gave a Km (other: W434F) of 1200 ± 200 µM, a kcat (other: W434F) of 0.6 ± 0.03 s⁻¹ and a kcat/Km (other: W434F) of 500 ± 20 M⁻¹ s⁻¹.
Substance “HvExoI W434H mutant (Hordeum vulgare subsp. vulgare; W459H)” has a Km (other: W434H) of 2800 ± 100 µM, a kcat (other: W434H) of 1.2 ± 0.1 s⁻¹ and a kcat/Km (other: W434H) of 400 ± 10 M⁻¹ s⁻¹.
Work on “WT HvExoI (Hordeum vulgare subsp. vulgare)” yielded a Km (other: WT) of 1200 ± 100 µM, a kcat (other: WT) of 4.4 ± 0.1 s⁻¹ and a kcat/Km (other: WT) of 3700 ± 200 M⁻¹ s⁻¹.
Substance “HvExoI W286F/W434F mutant (Hordeum vulgare subsp. vulgare; W311F/W459F)” has a Km (other: W286F/W434F) of 1500 ± 300 µM, a kcat (other: W286F/W434F) of 0.02 ± 0.001 s⁻¹ and a kcat/Km (other: W286F/W434F) of 10 ± 1 M⁻¹ s⁻¹.
Work on “HvExoI W286Y mutant (Hordeum vulgare subsp. vulgare; W311Y)” yielded a Km (other: W286Y) of 1400 ± 100 µM, a kcat (other: W286Y) of 4.5 ± 0.3 s⁻¹ and a kcat/Km (other: W286Y) of 3200 ± 400 M⁻¹ s⁻¹.
